## scFv variants of Ab-91 (heavy chain) against a SARS-CoV-2 spike peptide

Source: Engelhart et al. 2022 (doi:10.1038/s41597-022-01779-4), MIT Lincoln Laboratory and A-Alpha Bio; data file from the FLAb repository.

Binding partner: SARS-CoV-2 spike HR2 peptide, sequence PDVDLGDISGINAS.

Parent scFv Ab-91: VL joined to VH by a (GGGGS)3 linker. Changes lie in the heavy chain CDRs alone.
VL: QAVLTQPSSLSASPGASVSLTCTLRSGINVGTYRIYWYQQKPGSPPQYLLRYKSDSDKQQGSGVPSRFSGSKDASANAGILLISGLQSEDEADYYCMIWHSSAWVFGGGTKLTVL
VH: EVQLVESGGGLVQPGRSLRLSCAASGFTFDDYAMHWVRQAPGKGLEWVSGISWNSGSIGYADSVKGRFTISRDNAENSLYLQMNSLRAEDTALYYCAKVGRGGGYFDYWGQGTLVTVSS

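The parent was found by panning a naive human phage display library on the peptide. Variants in AAYL51 differ from the parent at up to three CDR positions; double and triple changes were sampled at random. AlphaSeq pools MATa yeast showing the antibodies with MATalpha yeast showing the peptide. Mating (16 h, 30 °C) was followed by selection of diploids and sequencing of their barcodes. A regression on co-assayed BCL2-family reference pairs converts the normalised counts of each replicate to an apparent Kd. Each pool was mated in three replicate cultures.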

Each variant's VH is given in full.
This list gathers variants with a substitution at Y60 (VH, numbered from residue 1).
Affinities are written as log10 Kd with Kd in nM; a lower number is a better binder.
An entry "nd" has no value in the source: the pair was not observed among the diploids in that replicate. This suggests poor binding but is not conclusive.
Empty control strains, which show no peptide, gave a signal in 21% of pairings with library AAYL51; the median was 4.54 and 95% of these signals were weaker than 3.26. No background was subtracted.

- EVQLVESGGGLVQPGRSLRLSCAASGFTFDDYAMHWVRQAPGKGLEWVSGISWRSGSIGSADSVKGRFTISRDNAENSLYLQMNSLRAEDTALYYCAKVGRGGGYFDYWGQGTLVTVSS: 4.60, 6.08, 5.36
- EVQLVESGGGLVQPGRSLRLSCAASGFTFDDYRMHWVRQAPGKGLEWVSGISWNSGSIGTADSVKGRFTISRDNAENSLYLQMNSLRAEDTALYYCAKVGRGGGCFDYWGQGTLVTVSS: 3.96, nd, 5.40
- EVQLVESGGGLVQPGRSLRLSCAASGFTFDDYAMHWVRQAPGKGLEWVSGISWNSGSIGNADSVKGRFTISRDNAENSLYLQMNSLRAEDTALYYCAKVGCGGIYFDYWGQGTLVTVSS: nd, nd, nd
- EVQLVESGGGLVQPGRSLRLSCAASGFTMDDYAMHWVRQAPGKGLEWVSGISWNSGSIGPADSVKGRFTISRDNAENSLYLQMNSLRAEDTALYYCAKVGRGGGPFDYWGQGTLVTVSS: nd, nd, nd
- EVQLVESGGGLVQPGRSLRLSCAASGFTFDDYAMHWVRQAPGKGLEWVSYISWNSGSIAGADSVKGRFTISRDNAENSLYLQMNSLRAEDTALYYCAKVGRGGGYFDYWGQGTLVTVSS: nd, nd, 4.66
- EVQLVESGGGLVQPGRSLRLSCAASCFTFDDYKMHWVRQAPGKGLEWVSGISWNSGSIGLADSVKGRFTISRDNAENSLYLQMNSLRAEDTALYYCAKVGRGGGYFDYWGQGTLVTVSS: nd, 5.05, nd
- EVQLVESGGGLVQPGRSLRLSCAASGFTFWDYAMHWVRQAPGKGLEWVSGISWPSGSIGMADSVKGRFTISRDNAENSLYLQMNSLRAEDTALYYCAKVGRGGGYFDYWGQGTLVTVSS: nd, 4.75, nd
- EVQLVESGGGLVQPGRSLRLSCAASGFTFDDYAMHWVRQAPGKGLEWVSGQSWNSGSIGHADSVKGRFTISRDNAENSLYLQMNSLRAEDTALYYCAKVGRGGGRFDYWGQGTLVTVSS: nd, nd, nd
- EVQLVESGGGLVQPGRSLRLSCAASGFTFDDYAMHWVRQAPGKGLEWVSGISWNSTSIGAAPSVKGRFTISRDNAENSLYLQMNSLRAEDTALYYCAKVGRGGGYFDYWGQGTLVTVSS: 3.65, nd, nd
- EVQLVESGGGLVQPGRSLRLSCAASGFTFDDYAMHWVRQAPGKGLEWVSGIEWNSGSIGWADSVKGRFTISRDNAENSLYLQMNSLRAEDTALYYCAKVGRGGPYFDYWGQGTLVTVSS: nd, nd, nd
- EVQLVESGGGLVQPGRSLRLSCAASGFTFDDYAQHWVRQAPGKGLEWVSGISWNSGSIGNADSVKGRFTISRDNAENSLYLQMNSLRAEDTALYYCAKVGRGGGYFDYWGQGTLVTVSS: nd, nd, nd
- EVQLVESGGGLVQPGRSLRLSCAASGFTFDDYAMVWVRQAPGKGLEWVSGISWNSGSIGMADSVKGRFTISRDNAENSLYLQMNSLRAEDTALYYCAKVGRGGGYFDYWGQGTLVTVSS: 5.02, 4.96, 5.25
- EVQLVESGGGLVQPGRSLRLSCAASGFTFDDYAMHWVRQAPGKGLEWVSGISWNSGSIGPAYSVKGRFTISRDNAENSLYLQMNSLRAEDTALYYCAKVGRGGFYFDYWGQGTLVTVSS: nd, nd, nd
- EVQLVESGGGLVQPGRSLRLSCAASGFTFDDYAMHWVRQAPGKGLEWVSGISWNSGSIGSADSVKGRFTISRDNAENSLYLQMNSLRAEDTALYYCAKMGRGGKYFDYWGQGTLVTVSS: 4.54, nd, 5.59
- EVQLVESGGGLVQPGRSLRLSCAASGFTADDYAMHWVRQAPGKGLEWVSGISWNSGSIGRAHSVKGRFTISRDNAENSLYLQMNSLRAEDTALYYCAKVGRGGGYFDYWGQGTLVTVSS: 3.78, 4.74, nd
- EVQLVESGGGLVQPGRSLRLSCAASGFTGDDYAMHWVRQAPGKGLEWVSGISWNCGSIGDADSVKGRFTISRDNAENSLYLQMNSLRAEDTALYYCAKVGRGGGYFDYWGQGTLVTVSS: nd, nd, nd
- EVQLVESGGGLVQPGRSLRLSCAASGFTIDDYAMHWVRQAPGKGLEWVSGISWNSGSIGIVDSVKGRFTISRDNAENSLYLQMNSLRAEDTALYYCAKVGRGGGYFDYWGQGTLVTVSS: nd, nd, nd
- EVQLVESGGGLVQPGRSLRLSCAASNFTFDDYAMHWVRQAPGKGLEWVSGISWPSGSIGHADSVKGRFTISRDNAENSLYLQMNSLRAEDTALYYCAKVGRGGGYFDYWGQGTLVTVSS: nd, nd, nd
- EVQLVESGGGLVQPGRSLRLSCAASGFTQDDYAMHWVRQAPGKGLEWVSGISWNSGSIGEADSVKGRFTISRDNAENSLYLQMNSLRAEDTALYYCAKVGVGGGYFDYWGQGTLVTVSS: nd, nd, nd

3 of these entries, quoted again:

- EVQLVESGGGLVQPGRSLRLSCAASGFTADDYAMHWVRQAPGKGLEWVSGISWNSGSIGRAHSVKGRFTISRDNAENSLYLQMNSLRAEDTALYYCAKVGRGGGYFDYWGQGTLVTVSS -> 3.78, 4.74, nd
- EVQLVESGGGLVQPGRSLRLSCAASGFTFDDYAMHWVRQAPGKGLEWVSGIEWNSGSIGWADSVKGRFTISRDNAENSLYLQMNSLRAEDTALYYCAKVGRGGPYFDYWGQGTLVTVSS -> nd, nd, nd
- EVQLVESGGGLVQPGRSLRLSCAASGFTGDDYAMHWVRQAPGKGLEWVSGISWNCGSIGDADSVKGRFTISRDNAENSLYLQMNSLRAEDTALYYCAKVGRGGGYFDYWGQGTLVTVSS -> nd, nd, nd